Tested on: b-tubulin in HL-60 cells
Assay: in situ tubulin polymerization, immunoblot of soluble and particulate fractions
Assay type: cell-based, human
Details: HL-60, different concentrations, 5 h
Description: A simple in situ cellular assay as described by Giannakakou P., Gussio R., Nogales E., Downing K. H., Zaharevitz D., Bollbuck B., Poy G., Sackett D., Nicolaou K. C., Fojo T., Proc. Nat. Acad. Sci. (USA) (2000), 97, 2904-2909 was used in which the shift in tubulin from depolymerized to polymerized forms was followed by electrophoresis and Western blotting of centrifuged particulate and cytosolic fractions. To summarize, 2×10^6 untreated and drug-exposed HL-60 cells were lysed by exposure for 5 min at 37° C. to […] of hypotonic buffer (1 mM MgCl2, 2 mM EGTA, 1% Nonidet P-40, 2 mM phenylmethylsulfonyl fluoride, 1 mg/mL aprotinin, 2 mg/mL pepstatin, and 20 mM Tris-HCl, pH 6.8) and the particulate fraction separated from the soluble cytosolic fraction by high speed centrifugation for 10 min in a bench-top centrifuge. Samples labeled ‘0 min’ received drug immediately before collection of the cells. The processing of the cells to the critical centrifugation step required approximately 30 min. The pellet was dissolved in […] of sample buffer (8 M urea, 4% CHAPS, 3 M thiourea, and 40 mM DTT). Twenty mL of loading buffer was added to each […] sample, the samples were vortexed and then boiled for 5 min. […]

Structure (SMILES): COc1cc2c(c(OC)c1OC)-c1ccc(OC)c(=O)cc1[C@@H](NC(C)=O)CC2 [Colchicine, colchicine, reference compound]
- effect on proportion of soluble to polymerized tubulin: depolymerization of tubulin

— patent publication US6790862B2 (priority 1999, dated 2004)
